# In patent US4048325A, “Low toxicity method of inhibiting sickling of sickle erythrocytes” (The United States of America as represented by the United …, priority 1976, dated 1977):
# Experiment: in vivo
# Conditions: ip, intraperitoneal
# Excerpt: Each compound was made up in KH buffer (280 Mosm) buffered to pH 7.4 with 5N NaOH. The final volume for each injection was 1 cc in rats in 0.5 cc in mice.
structure (smiles),measurement,setting,value
"COC(=N)CCCCC(=N)OC [DMA, dimethyl adipimidate, reference compound]",LD50,"mouse, mice, read-out: LD50 (Lethal dose for 50% of the animals)",750 mg/kg
same,LD50,"rat, rats",700 mg/kg

# Where two headings read alike, the source gives them in different places.
